Measurements published in patent publication US9505749B2, “Quinazolinone compounds and derivatives thereof” (AMGEN INC., priority 2012, dated 2016).

Chains of the proteins cited; added tags and fusions are not shown. Lines headed by an entry give the natural chain unless they say otherwise; changes in a name come on top. Residues count along the entry.
UniProt Q9UGN5: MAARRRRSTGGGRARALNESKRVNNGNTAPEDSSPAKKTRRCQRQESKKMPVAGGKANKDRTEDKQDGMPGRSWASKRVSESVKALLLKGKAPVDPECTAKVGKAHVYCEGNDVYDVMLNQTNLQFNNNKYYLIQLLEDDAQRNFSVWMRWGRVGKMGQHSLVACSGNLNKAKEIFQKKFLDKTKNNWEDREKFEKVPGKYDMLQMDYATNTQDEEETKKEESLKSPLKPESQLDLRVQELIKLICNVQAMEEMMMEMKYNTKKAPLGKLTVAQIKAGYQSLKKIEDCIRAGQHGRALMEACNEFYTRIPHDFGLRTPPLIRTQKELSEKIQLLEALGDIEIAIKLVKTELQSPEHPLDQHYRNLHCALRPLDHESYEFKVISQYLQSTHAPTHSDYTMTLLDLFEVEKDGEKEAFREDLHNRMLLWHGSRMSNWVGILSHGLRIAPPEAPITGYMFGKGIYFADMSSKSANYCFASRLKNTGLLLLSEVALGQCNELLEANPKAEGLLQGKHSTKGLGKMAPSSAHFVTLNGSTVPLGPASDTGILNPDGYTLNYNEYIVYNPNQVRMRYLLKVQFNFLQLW
UniProt Q9H2K2, 946-1162: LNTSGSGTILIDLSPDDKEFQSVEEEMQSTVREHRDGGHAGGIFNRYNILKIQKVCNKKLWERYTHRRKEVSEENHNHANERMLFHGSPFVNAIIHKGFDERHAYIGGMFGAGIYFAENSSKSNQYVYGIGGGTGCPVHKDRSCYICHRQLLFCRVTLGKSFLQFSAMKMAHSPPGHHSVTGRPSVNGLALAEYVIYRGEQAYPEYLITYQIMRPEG

Tests used:
[1] = molecular target: PARP2 (Homo sapiens (Human), UniProt Q9UGN5); assay: PARP2 biochemical assay (BPS kit)
[2] = molecular target: 6×HIS-tankyrase 2 (946-1162) (Homo sapiens (Human), UniProt Q9H2K2); assay: Tankyrase 2 biochemical assay (AlphaLisa, PARsylation); details: 250 nM NAD; read-out: TNKS2 IC50

Compound: O=C(CCc1nc2ccccc2c(=O)[nH]1)N[C@H]1CC[C@H](c2nnc(-c3ccccc3F)o2)CC1 [Example 126, N-((1r,4r)-4-(5-(2-fluorophenyl)-1,3,4-oxadiazol-2-yl)cyclohexyl)-3-(4-oxo-3,4-dihydroquinazolin-2-yl)propanamide]
- IC50 [1]: 1070 nM

Compound: O=C(CCc1nc2ccccc2c(=O)[nH]1)N[C@H]1CC[C@H](c2nnc(-c3ccc(Cl)cc3)o2)CC1 [Example 141, N-((1r,4r)-4-(5-(4-chlorophenyl)-1,3,4-oxadiazol-2-yl)cyclohexyl)-3-(4-oxo-3,4-dihydroquinazolin-2-yl)propanamide]
- IC50 [2]: 5.92 nM
